Reference: ChEMBL document CHEMBL1129631, “Synthesis and evaluation of aryl-substituted N-(arylethyl)-N-methyl-2-(1-pyrrolidinyl)ethylamines and corresponding arylacetamides for sigma receptor affinity” (J Med Chem, 1996)

Target: Sigma non-opioid intracellular receptor 1 (Cavia porcellus) (UniProt Q60492)
Assay: Relative affinity for sigma-1 compared to sigma-2 type receptors

Q: How did the Ratio turn out when COc1ccccc1CC(=O)N(C)CCN1CCCC1 was run?
A: 1.7
